{"source": "paper PMC2481421", "about": "“Gene expression response in target organ and whole blood varies as a function of target organ injury phenotype” (Genome Biology, 2008)", "tested_on": "liver", "assay": "Liver histopathology (H&E sections of left liver lobe, severity graded) after a single dose", "conditions": "rat, single administration"}
{"compound": "Clc1ccccc1Cl", "note": "[1,2-Dichlorobenzene]", "values": [{"measurement": "Primary site of livery injury", "value": "Centrilobular"}]}
